Anesthetic bind = binds horse apoferritin like a general anesthetic; P02791; apoferritin/1-aminoanthracene competitive binding, fluorescence; Potency, µM (highest dose often 77.5 µM), inactives show top-dose activity change, negative = displacement, hits mostly inhibitors; 350,000 compounds, 0.074% hits; AID 485281; also: potency is read from the fitted curve at half-maximal effect; % is scaled to controls: 0 for no effect and ±100 for the full control effect; nearly all actives have a fitted effect of over 20% in size
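Horse-spleen apoferritin (10 uM) was mixed with 50% saturated 1-aminoanthracene in PBS, exposed to compounds for 10 min at room temperature, and read for fluorescence (ex 380 nm, em 535 nm). Competitive displacement was fitted with a four-parameter Hill equation.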
BRCA1 expr up = activators of BRCA1 expression. MCF7-BRCA1-FFLuc reporter, luminescence, 48 h; response scale: scaled: vehicle 0%, 10 µM genistein 100%. Potency, µM (doses to about 46.1 µM), without a hit: top-dose activation, hits mostly activators. 380,000 compounds, 1.1% hits; also: potency is read from the fitted curve at half-maximal effect; nearly all actives have a fitted effect of over 80% in size
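Activators of BRCA1 expression were detected as increased firefly luciferase luminescence in engineered MCF7 cells after 48 h compound incubation. Signals were scaled to genistein 10 microM as full activation.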
p53 reactivation = restores transcriptional activity of mutant p53; H1299 p53-A138V BP100-luciferase reporter, luminescence, 24 h; Potency, µM (doses to about 92.2 µM), without a hit: at the top dose activity change, positive = activation, actives largely listed as activators; 320,000 compounds, 0.063% hits; also: potency is read from the fitted curve at half-maximal effect; % of control where 0% means no effect; nearly all actives have a fitted effect of over 45% in size
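H1299 (p53-null), stable ts p53-A138V + BP100-Luc; 1000 cells/well, Opti-MEM/10% FBS; cpd 4 pt, 1:5; 24 h, 37 deg C, 5% CO2; detection reagent 10 min RT; luminescence.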
miR-21 reporter = miR-21 reporter, rising signal; HeLa miR-21 FLuc reporter, luciferase, 48 h; Potency, µM (highest dose often 38.3 µM), for the others: top-dose reporter change, positive = more light; 340,000 tested, under 10 active; AID 2288; active = well fitted rising curve with a large enough effect; inconclusive = small, poorly fitted or top-dose-only effect; inactive = no such curve, though single readings can be large or run the other way;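 further: % of control where 0% means no effect; miR-21 action dims this reporter so a rising signal means less miR-21 action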
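Using DMEM plus 10% FBS, HeLa miR-21-FLuc cells are incubated with test compounds (final up to about 40uM) for 48 hours; firefly luciferase signal is then imaged following reagent-mediated lysis.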
Active calls of the source: *; ? = inconclusive; · = no result; ! = not confirmed by another sample. A selection: hits, their analogues and other compounds. The true share with any hit is near 1.1%. Unless noted, calls follow the shape of the dose curve; as a rule, active = well fitted curve in the direction sought with a large enough effect; inconclusive = small, poorly fitted or top-dose-only effect, or another doubt; inactive = no such curve, though single readings can be large; an effect the other way counts as inactive or inconclusive.

Short keys: A = Anesthetic bind; B = BRCA1 expr up; C = p53 reactivation; D = miR-21 reporter
(1) C[C@H](NC(=O)c1ccccc1Cl)C(=O)OCC(=O)NNC(=O)c1cccs1
  A: ·; B: -22%; C: 6%; D: ·

(2) Cc1ccc(-c2ccc(=O)n(CC(=O)NCc3ccc(F)cc3)n2)cc1
  A: 8.9µM*; B: 32%; C: -3%; D: 3%

(3) C=Cc1ccc(Cn2nc(-c3ccc(C)cc3)ccc2=O)cc1
  A: 16µM*; B: -25%; C: 3%; D: -10%

(4) COc1cccc(CNC(=O)Cn2nc(-c3ccc(C)cc3)ccc2=O)c1
  A: ?; B: ·; C: ·; D: 0%

(5) COc1cccc(CNC(=O)Cn2nc(-c3ccc(Cl)cc3)ccc2=O)c1
  A: 6.3µM*!; B: 3%; C: -21%; D: -10%

(6) CCCCNC(=O)Cn1nc(-c2ccc(C)cc2)ccc1=O
  A: ?; B: 17%; C: -2%; D: -1%

(7) CC1=C(C(=O)Nc2ccccc2)C(c2cccc(Cl)c2)n2nc(SCC(=O)c3ccc(C)cc3)nc2N1 (stereo unspecified)
  A: 4%; B: ·; C: ·; D: 0%

(8) CC1(C)C(C(=O)OCC(Cl)(Cl)Cl)N2C(=O)C(NC(=O)Cc3ccccc3)C2S1=O (stereo unspecified)
  A: 7%; B: -3%; C: 4%; D: 0%

(9) CC(C)[C@@H](C(=O)N1CCCC1)N1C(=O)N2CCc3c([nH]c4ccccc34)[C@@]2(C)C1=O
  A: -6%; B: -9%; C: 6%; D: 4%

(10) Clc1ccc(OCc2nc3ccccc3[nH]2)cc1
  A: -5%; B: 3.2µM*; C: 9%; D: -28%

(11) CC(C)n1cc(CN2CCN(CCc3ccccc3)C(CCO)C2)cn1 (stereo unspecified)
  A: -5%; B: -4%; C: 1%; D: -1%

(12) CC(C)(C)c1ccc(C(=O)CS(=O)(=O)c2ccccc2)cc1
  A: ?; B: 4µM*; C: 15%; D: -42%

(13) Cc1ccc(S(=O)(=O)CC(=O)c2ccccc2)cc1
  A: -18%; B: 26%; C: ?; D: -11%

(14) Cc1ccc(-c2nc(NCc3ccco3)n(S(C)(=O)=O)n2)cc1
  A: -11%; B: 69%; C: 1%; D: -59%

(15) CC(=O)n1nc(-c2ccc(C)cc2)nc1NCc1ccco1
  A: -7%; B: 5µM*; C: 14%; D: -42%

(16) CC(=O)n1nc(-c2ccc(C)cc2)nc1NCc1ccc(F)cc1
  A: -6%; B: 3.2µM*; C: ?; D: -15%

(17) CCCCn1cnc2c(SCc3ccc(Br)cc3)nc(N)nc21
  A: ·; B: -61%; C: ·; D: ·

(18) CCCCn1cnc2c(SCc3ccccc3)nc(N)nc21
  A: ·; B: 7.1µM*; C: ·; D: ·

(19) Cc1cccc(-c2nn(-c3ccccc3)cc2C(=O)N2CCN(C3CCS(=O)(=O)C3)CC2)c1 (stereo unspecified)
  A: ·; B: -13%; C: -5%; D: ·

(20) Cc1cc(NC(=O)Cn2nnc3sc4c(c3c2=O)CCCC4)no1
  A: ?; B: 4%; C: -22%; D: -10%

(21) Cc1cc(NC(=O)Cn2nnc3sc4c(c3c2=O)CCC(C(C)(C)C)C4)no1 (stereo unspecified)
  A: 13µM*; B: -34%; C: -3%; D: -9%

(22) N#CCCn1nnc2ccccc21
  A: -11%; B: 0%; C: 5%; D: 0%

(23) Cc1ccc(OCCn2nnc3ccccc32)cc1C
  A: ?; B: 4.5µM*; C: 26%; D: -52%

(24) CCOc1ccc(OCCn2nnc3ccccc3c2=O)cc1
  A: -16%; B: 1µM*; C: 15%; D: -73%

(25) c1ccc(CCn2nnc3ccccc32)cc1
  A: -2%; B: 13µM*; C: 12%; D: -62%

(26) O=c1c2ccccc2nnn1COc1cccc2ccccc12
  A: ?; B: 8.9µM*; C: 19%; D: -83%

(27) COc1ccccc1OCCn1nnc2ccccc21
  A: -10%; B: ?; C: ?; D: -52%

(28) CCCn1nnc2ccccc2c1=O
  A: -12%; B: 8%; C: 3%; D: 0%

(29) Cc1ccc(-n2c(=O)c3c4c(sc3n(CC(=O)Nc3ccccc3C)c2=O)CCCCC4)cc1C
  A: -11%; B: 20%; C: ·; D: -1%

(30) CCC(=O)Nc1ccc2nc(C3CC3)n(Cc3ccccc3)c(=O)c2c1
  A: -10%; B: 4µM*; C: 15%; D: -32%

(31) O=C(Nc1ccc2nc(C3CC3)n(Cc3ccccc3)c(=O)c2c1)C1CC1
  A: 5%; B: 113%; C: 11%; D: -27%

(32) Cc1ccc(C(C)(C)C)cc1S(=O)(=O)N1CCC(C(=O)N2CCN(c3ccc(O)cc3)CC2)CC1
  A: ·; B: -51%; C: -9%; D: ·

(33) Cc1nc(C#N)c(N/N=C/c2cccc(Cl)c2)o1
  A: -4%; B: 22µM*; C: ?; D: -61%

(34) CCc1nc(-c2cc(S(=O)(=O)N3CCN(c4ccccc4)CC3)ccc2OC)no1
  A: 0%; B: ·; C: ·; D: 4%

(35) COc1ccc(Cl)cc1NC(=O)CCN1C(=O)c2ccccc2Sc2ncccc21
  A: -9%; B: ·; C: ·; D: -10%

(36) O=c1[nH]c2ccccc2nc1/C=C(\O)c1cccs1
  A: -14%; B: 66%; C: 17%; D: -42%

(37) O/C(=C\c1nc2ccccc2[nH]1)c1cccs1
  A: -9%; B: 13µM*; C: ?; D: -46%

(38) COc1ccc(NC(=O)C2(C)Cc3c(-c4cccc(C(F)(F)F)c4)ccnc3O2)cc1OC (stereo unspecified)
  A: ·; B: -51%; C: ·; D: ·

(39) CN(N=O)c1ccc(/C=C/c2ccccc2)cc1
  A: ·; B: 5.6µM*; C: ·; D: ·

(40) CC(=O)N(O)c1ccc(C=Cc2ccccc2)cc1
  A: ·; B: 121%; C: ·; D: ·

(41) CCCc1noc(-c2ccc(-c3ccccc3)cc2)n1
  A: -8%; B: 8.9µM*; C: ?; D: -56%

(42) CCCc1noc(-c2cccc([N+](=O)[O-])c2)n1
  A: -12%; B: -5%; C: 29%; D: -2%

(43) Cc1cccc(N2CCN(C(=O)CN3C(=O)COc4ccc(S(=O)(=O)N5CCOCC5)cc43)CC2)c1C
  A: -6%; B: 7%; C: ·; D: 0%

(44) CN1CCS/C1=C/C=C1/SC(=S)N(Cc2ccccc2)C1=O
  A: -22%; B: 13µM*; C: ?; D: -29%

(45) CCCCN1C(=O)/C(=C/C=C2\SCCN2C)SC1=S
  A: ?; B: 7.1µM*; C: ?; D: -65%

(46) CN1CCS/C1=C/C=C1\SC(=S)N(CC(=O)O)C1=O
  A: -11%; B: 3%; C: 2%; D: 0%

(47) O=C(CNC(=O)C12CC3CC(CC(C3)C1)C2)NCc1ccccc1
  A: ·; B: 9%; C: 8%; D: ·

(48) NNC(=O)CNC(=O)C12CC3CC(CC(C3)C1)C2
  A: 7.9µM*; B: -1%; C: 2%; D: -3%

(49) Cn1c(=O)c2nc(SCC(=O)Nc3ccc(OC(F)(F)F)cc3)n(C)c2n(C)c1=O
  A: -4%; B: ·; C: ·; D: 1%

(50) N#Cc1ccc(S(=O)(=O)N2CCC(Oc3cccc(C(F)(F)F)c3)CC2)cc1
  A: -4%; B: ·; C: ·; D: -2%

(51) O=C(O)c1ccc(COc2ccc(CO)cc2Cl)cc1
  A: -4%; B: 7.9µM*; C: 21%; D: -47%

(52) N#C/C(=N\Nc1ccccc1)C(=N)N1CCCCCC1
  A: -11%; B: 2.5µM*; C: 8%; D: -70%

(53) N#C/C(=N\Nc1ccc(F)cc1)C(=N)N1CCCCC1
  A: ?; B: ?; C: ?; D: -45%

(54) COc1cc(NC(=O)CN2CCCN(S(=O)(=O)c3ccc(F)cc3)CC2)cc(OC)c1
  A: -9%; B: ·; C: ·; D: -1%

(55) CC(=O)c1ccc(Nc2cc(C)nc3ccccc23)cc1
  A: -13%; B: -14%; C: 10%; D: 11%

(56) COc1ccccc1-c1ccc(Nc2cccc(C(C)=O)c2)nn1
  A: -5%; B: 71%; C: ?; D: -39%

(57) CC(=O)c1ccc(Nc2ccc(-c3ccccc3C)nn2)cc1
  A: -16%; B: 6.3µM*; C: 4%; D: -46%

(58) CC(=O)c1cccc(Nc2ccc(-c3ccccc3F)nn2)c1
  A: ?; B: 11µM*; C: 10%; D: -48%

(59) Cc1cc(NCCOCCO)n2ncc(-c3ccc(Cl)cc3)c2n1
  A: -2%; B: 24%; C: 40µM*; D: 8%

(60) COCCN(C(=O)CCC(=O)Nc1ccccn1)C(C(=O)NCCC(C)C)c1ccc(C)cc1 (stereo unspecified)
  A: 5%; B: -3%; C: 2%; D: 1%

Ordered by molecular weight (low to high): some entries from above
Short keys: A = Anesthetic bind; B = BRCA1 expr up; C = p53 reactivation; D = miR-21 reporter
(48) NNC(=O)CNC(=O)C12CC3CC(CC(C3)C1)C2
  A: 7.9µM*; B: -1%; C: 2%; D: -3%

(58) CC(=O)c1cccc(Nc2ccc(-c3ccccc3F)nn2)c1
  A: ?; B: 11µM*; C: 10%; D: -48%

(59) Cc1cc(NCCOCCO)n2ncc(-c3ccc(Cl)cc3)c2n1
  A: -2%; B: 24%; C: 40µM*; D: 8%

(54) COc1cc(NC(=O)CN2CCCN(S(=O)(=O)c3ccc(F)cc3)CC2)cc(OC)c1
  A: -9%; B: ·; C: ·; D: -1%

(60) COCCN(C(=O)CCC(=O)Nc1ccccn1)C(C(=O)NCCC(C)C)c1ccc(C)cc1 (stereo unspecified)
  A: 5%; B: -3%; C: 2%; D: 1%
